The target in the experiment is T1, hV1a receptor (Homo sapiens, UniProt P37288).
T1 construct: expressed in transfected cells; host or cells: HEK-293
Put plainly: hV1a receptor transcriptional reporter (luciferase) agonist assay. The following applies: HEK-293 cells transiently transfected with hV1a receptor, 5 hours exposure, geometric mean. The experiment is classed as cell-based. As to the method:
Agonist activity of compounds on the hV1a receptor was determined in a transcriptional reporter assay by transiently transfecting a hV1a receptor expression DNA into HEK-293 cells in concert with a reporter DNA containing intracellular calcium responsive promoter elements regulating expression of firefly luciferase. See Boss, V., Talpade, D. J., Murphy, T. J. J. Biol. Chem. 1996, May 3; 271(18), 10429-10432 for further guidance on this assay. […] To determine selectivity, compounds were tested in luciferase-based transcriptional reporter assays expressing the human oxytocin (hOT) receptor. Assays for other receptors (hV2, hV1b, rat V1a and rat V2) were also conducted.
The EC50 value given is the geometric mean expressed in nanomol/L (nM). Selectivity values are given as EC50 ratios.

By UniProt entry, the sequences of proteins in these tests, tags left out.
UniProt P37288, whole entry: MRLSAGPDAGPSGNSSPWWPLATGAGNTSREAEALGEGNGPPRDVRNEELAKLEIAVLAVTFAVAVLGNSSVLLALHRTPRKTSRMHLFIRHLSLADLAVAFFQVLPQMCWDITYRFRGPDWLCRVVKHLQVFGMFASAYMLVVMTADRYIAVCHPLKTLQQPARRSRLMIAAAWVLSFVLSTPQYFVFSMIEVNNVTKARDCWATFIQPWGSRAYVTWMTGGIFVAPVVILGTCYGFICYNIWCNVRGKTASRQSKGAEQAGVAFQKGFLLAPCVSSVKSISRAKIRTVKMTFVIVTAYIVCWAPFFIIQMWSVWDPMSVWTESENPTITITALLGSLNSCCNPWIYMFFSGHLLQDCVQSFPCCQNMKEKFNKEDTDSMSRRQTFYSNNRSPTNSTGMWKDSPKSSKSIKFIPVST

As to “[Phe2,Orn8]OT [[Phe2, Orn8]OT, reference compound]”, the EC50 (as a rule, the concentration at which the effect is half-maximal) stood at 0.15 nM.

Values taken from US8222202B2 (priority 2006, dated 2012).
